# From PubChem BioAssay AID1430 (University of Pittsburgh Molecular Library Screening Center, 2008)
# The entries are a selection whose mix differs from that of the whole data set. Some tests of the compounds listed are not included; inactive here does not mean inactive elsewhere. Active and inactive are the calls of the source.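 How the source made its calls: active means inhibition of 50% or more in the single-dose primary screen; inactive means inhibition below 50%.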
# System: hexokinase 1 [Trypanosoma brucei]
# Experiment: Trypanosoma brucei hexokinase 1 inhibitors, primary screen, biochemical, G6PDH-coupled NADH absorbance, MLSCN library (AID 1430)
# Conditions: recombinant TbHK1, G6PDH-coupled NADH A340; at 10 µM; hits give high values
row,Compound,inhibition
1,CC(C)N1C(=O)CC2(CCN(CCOC(=O)C(O)(c3ccccc3)c3ccccc3)CC2)C1=O,inactive: -4.89%
2,CCN(CC)CC(C)C(C)OC(=O)C(O)(c1ccccc1)c1ccccc1 (stereo unspecified),inactive: -2.92%
3,O=C(NCC1(N2CCCCC2)CCCCC1)c1cc([N+](=O)[O-])ccc1Cl,inactive: -0.158%
4,C=CCN1CCN(CCOC(=O)C(O)(c2ccccc2)c2ccccc2)CC1,inactive: -12.6%
5,CCN1CCCC(OC(=O)C2(O)c3ccccc3C=Cc3ccccc32)C1 (stereo unspecified),inactive: 7.92%
6,CN(C)C1CCCC1OC(=O)C(O)(c1ccccc1)c1ccccc1 (stereo unspecified),inactive: 4.33%
7,Cc1ccccc1C(=O)NCC1(N2CCCCC2)CCCCC1,inactive: 7.71%
8,COc1cccc(C(=O)NCC2(N3CCCCC3)CCCCC2)c1,inactive: 0.466%
9,COc1ccc(Br)c(C(=O)NCC2(N3CCCCC3)CCCCC2)c1,inactive: -1.55%
10,CN(C)c1cccc(C(=O)NCC2(N(C)C)CCCCC2)c1,inactive: -0.883%
11,O=C(OC1CN2CCC1CC2)C(CO)(c1ccccc1)c1ccccc1 (stereo unspecified),inactive: 1.94%
